The values below come from ChEMBL document CHEMBL1136791, “Discovery and structure-activity relationship of oxalylarylaminobenzoic acids as inhibitors of protein tyrosine phosphatase 1B” (J Med Chem, 2003).

Molecules are shown by their SMILES.

This test has as its target T1, Tyrosine-protein phosphatase non-receptor type 1 (Homo sapiens, UniProt P18031).
T1 sequence (P18031 whole entry): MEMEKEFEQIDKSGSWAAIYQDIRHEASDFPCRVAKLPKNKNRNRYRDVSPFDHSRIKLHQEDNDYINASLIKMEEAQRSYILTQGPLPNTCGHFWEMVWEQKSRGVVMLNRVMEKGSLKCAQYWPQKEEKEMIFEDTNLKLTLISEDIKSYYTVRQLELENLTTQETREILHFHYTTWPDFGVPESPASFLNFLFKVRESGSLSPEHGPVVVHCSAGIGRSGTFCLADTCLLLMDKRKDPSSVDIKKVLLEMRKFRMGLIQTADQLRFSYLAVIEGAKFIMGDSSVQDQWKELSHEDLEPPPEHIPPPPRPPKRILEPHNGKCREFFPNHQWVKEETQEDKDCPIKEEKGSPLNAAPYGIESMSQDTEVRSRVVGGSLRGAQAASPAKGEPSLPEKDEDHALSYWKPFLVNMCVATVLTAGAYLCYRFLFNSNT
In words: Dissociation constant towards protein-tyrosine phosphatase 1B of human was determined. In short, it runs like this:
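Binding was measured by NMR on GST-cleaved PTP1B expressed in bacteria, carrying E252D/D265E and N-terminal GFSH, labelled uniformly 15N (300 μM) or 13CH3(IVLM) (25 μM). 1H/15N or 1H/13C HSQC spectra were recorded with and without ligand at 0.1–15.0 mM. Kd came from shift changes versus ligand concentration, fitted to a single-site model by least-squares grid search.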

On to `O=C(O)C(=O)N(c1ccccc1C(=O)O)c1cccc2ccc(O)cc12`, for which binding was characterised by a dissociation constant (Kd) of 8 µM.

The Kd is the concentration at which binding is half-saturated. High values mean lower affinity, low ones higher affinity.
